Laboratory results from ChEMBL document CHEMBL1122788, “Quantitative relationships between alpha-adrenergic activity and binding affinity of alpha-adrenoceptor agonists and antagonists” (J Med Chem, 1984).

Protein sequences, listed by entry. Tags and fused reporters are not part of them. Lines headed by an entry give the natural chain unless they say otherwise; changes in a name come on top.
UniProt P15823: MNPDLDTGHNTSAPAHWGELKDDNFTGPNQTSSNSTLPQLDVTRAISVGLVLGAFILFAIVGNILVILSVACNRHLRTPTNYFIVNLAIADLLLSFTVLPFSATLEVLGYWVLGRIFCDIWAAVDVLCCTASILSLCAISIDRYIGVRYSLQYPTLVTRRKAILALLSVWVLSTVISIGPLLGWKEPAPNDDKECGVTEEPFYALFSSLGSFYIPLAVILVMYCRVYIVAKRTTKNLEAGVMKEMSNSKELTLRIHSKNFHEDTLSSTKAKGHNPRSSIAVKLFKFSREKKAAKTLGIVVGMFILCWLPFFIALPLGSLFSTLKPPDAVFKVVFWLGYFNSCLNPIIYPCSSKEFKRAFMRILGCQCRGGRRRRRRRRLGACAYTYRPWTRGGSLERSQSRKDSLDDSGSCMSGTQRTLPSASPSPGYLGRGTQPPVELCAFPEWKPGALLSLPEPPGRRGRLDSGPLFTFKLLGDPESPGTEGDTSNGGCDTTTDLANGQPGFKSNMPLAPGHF
UniProt P23944: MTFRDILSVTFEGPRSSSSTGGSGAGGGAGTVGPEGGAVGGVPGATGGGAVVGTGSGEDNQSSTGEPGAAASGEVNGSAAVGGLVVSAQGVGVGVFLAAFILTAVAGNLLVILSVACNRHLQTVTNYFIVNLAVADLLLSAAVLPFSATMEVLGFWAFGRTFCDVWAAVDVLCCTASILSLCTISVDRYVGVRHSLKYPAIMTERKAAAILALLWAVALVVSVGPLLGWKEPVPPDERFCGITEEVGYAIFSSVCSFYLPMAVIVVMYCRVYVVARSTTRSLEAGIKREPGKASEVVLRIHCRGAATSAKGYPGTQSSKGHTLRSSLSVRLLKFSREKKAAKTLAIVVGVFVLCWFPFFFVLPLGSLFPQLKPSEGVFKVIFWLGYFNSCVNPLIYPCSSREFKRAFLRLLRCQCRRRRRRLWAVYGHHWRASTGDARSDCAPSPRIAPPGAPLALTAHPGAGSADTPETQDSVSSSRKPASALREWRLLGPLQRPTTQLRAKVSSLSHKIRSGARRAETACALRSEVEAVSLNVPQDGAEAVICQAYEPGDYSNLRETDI
UniProt P43140: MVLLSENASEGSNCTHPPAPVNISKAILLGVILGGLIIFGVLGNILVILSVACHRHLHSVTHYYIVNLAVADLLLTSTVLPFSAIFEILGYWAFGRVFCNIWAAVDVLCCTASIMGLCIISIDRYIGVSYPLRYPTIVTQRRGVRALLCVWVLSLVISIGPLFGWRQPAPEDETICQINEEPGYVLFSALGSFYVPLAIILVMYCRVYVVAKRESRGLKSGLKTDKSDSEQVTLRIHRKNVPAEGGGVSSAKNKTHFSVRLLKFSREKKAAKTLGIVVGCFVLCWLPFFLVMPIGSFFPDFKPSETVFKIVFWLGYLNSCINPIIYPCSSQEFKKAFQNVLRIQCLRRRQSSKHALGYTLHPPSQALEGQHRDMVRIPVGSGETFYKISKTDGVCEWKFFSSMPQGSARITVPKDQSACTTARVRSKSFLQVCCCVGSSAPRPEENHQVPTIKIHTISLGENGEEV
UniProt P22086: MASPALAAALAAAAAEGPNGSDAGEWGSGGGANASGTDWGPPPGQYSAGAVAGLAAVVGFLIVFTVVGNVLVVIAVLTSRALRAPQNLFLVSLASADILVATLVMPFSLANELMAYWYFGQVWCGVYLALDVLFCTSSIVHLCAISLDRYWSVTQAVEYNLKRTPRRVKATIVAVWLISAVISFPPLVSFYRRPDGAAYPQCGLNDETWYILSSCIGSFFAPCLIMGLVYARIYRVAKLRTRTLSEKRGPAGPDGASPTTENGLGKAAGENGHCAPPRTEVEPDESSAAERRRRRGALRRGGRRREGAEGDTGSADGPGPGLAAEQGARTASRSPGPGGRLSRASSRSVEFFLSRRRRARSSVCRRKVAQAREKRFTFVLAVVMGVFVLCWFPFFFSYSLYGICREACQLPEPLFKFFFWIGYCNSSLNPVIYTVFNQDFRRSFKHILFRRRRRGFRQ
UniProt P19328: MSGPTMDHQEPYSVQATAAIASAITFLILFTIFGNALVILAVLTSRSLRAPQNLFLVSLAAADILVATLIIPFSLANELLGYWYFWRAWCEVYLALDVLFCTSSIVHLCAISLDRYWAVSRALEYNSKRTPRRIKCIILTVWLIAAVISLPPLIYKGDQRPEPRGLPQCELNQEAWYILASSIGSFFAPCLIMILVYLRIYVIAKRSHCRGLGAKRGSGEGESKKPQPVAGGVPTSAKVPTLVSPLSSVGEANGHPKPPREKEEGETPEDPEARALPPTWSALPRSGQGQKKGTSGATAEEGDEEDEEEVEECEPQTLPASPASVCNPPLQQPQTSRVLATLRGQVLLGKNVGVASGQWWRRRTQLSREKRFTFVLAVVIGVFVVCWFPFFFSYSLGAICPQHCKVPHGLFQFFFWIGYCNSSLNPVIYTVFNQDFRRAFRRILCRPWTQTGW
UniProt P22909: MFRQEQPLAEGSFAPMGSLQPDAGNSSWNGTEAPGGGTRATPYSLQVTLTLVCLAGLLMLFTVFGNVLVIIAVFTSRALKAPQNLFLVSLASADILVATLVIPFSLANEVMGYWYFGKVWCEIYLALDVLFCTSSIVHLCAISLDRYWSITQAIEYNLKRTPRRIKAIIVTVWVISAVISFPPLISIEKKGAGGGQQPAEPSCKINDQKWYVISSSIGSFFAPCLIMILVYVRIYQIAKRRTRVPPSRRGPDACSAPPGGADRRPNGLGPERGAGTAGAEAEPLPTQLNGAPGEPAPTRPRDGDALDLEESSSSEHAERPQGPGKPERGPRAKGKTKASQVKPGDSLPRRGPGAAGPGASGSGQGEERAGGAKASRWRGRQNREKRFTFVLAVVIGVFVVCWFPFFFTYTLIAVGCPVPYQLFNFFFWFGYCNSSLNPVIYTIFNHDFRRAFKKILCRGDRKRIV

Columns and labels:
[1] = target: Adrenergic receptor alpha-1 (Rattus norvegicus, UniProt P15823+P23944+P43140); assay: Binding affinity against alpha-1 adrenergic receptor is the ability to inhibit the specific [3H]prazosin binding (0.2 nM) to rat isolated brain membranes by 50% was reported.
[2] = target: Adrenergic receptor alpha-2 (Rattus norvegicus, UniProt P22086+P19328+P22909); assay: Binding affinity against Alpha-2 adrenergic receptor is the ability to inhibit the specific [3H]clonidine binding (0.4 nM) to rat isolated brain membranes by 50% was reported; 2.3*10e-8; format: tissue-based, Membrane

Compound | IC50 [1] | IC50 [2]
Clc1cccc(Cl)c1NC1=NCCN1 [CLONIDINE] | 1200 nM | –
Cc1cc(C(C)(C)C)cc(C)c1CC1=NCCN1 [XYLOMETAZOLINE] | – | 23 nM
